Data from publication PMC6097915 (ACS chemical biology, 2018).
In brackets after ≈: the same amount, converted by molar mass.

Test system: WT MG1655 E. coli
Assay type: cell-based
Conditions: 6-hr period, aerated EZRDM medium, 30°C, by OD, successive two-fold dilutions in 96 well plates

With `CC[C@H](C)[C@H](NC(=O)CN)C(=O)NCC(=O)N[C@@H](C)C(=O)N[C@H](C(=O)N[C@@H](CC(C)C)C(=O)N[C@@H](CCCCN)C(=O)N[C@H](C(=O)N[C@@H](CC(C)C)C(=O)N[C@H](C(=O)N[C@H](C(=O)NCC(=O)N[C@@H](CC(C)C)C(=O)N1CCC[C@H]1C(=O)N[C@@H](C)C(=O)N[C@@H](CC(C)C)C(=O)N[C@H](C(=O)N[C@@H](CO)C(=O)N[C@@H](Cc1c[nH]c2ccccc12)C(=O)N[C@H](C(=O)N[C@@H](CCCCN)C(=O)N[C@@H](CCCNC(=N)N)C(=O)N[C@@H](CCCCN)C(=O)N[C@@H](CCCNC(=N)N)C(=O)N[C@@H](CCC(N)=O)C(=O)N[C@@H](CCC(N)=O)C(N)=O)[C@@H](C)CC)[C@@H](C)CC)[C@@H](C)O)[C@@H](C)O)C(C)C)C(C)C` [Melittin] as the compound, how does the “MIC (minimum inhibitory concentration)” value read?
Its value is 5 µM (≈ 14.2 µg/mL).
